From US4088642A (priority 1973, dated 1978)

How the values were obtained:
[1] = Gas evolution temperature; assay type: physicochemical; details: Table III
[2] = Table III
[3] = Table III; remark: listed apart in the source

CC(C#N)(N=NC(C)(C#N)C(C)(C)OO)C(C)(C)OO (stereo not shown)
Gas Evolution Temperature [1]: 70 °C
Ten Hour Half-Life Temperature, Azo [2]: ≈ 65 °C
Ten Hour Half-Life Temperature, Peroxide [2]: 160-170 °C
Shock Sensitivity [3]: negative
